From PubChem
The entries come from a sample that favours hits as a whole.
Rango-impB inh: qHTS Assay for Inhibitors of Rango (Ran-regulated importin-beta cargo) - Importin beta complex formation; AID 540263, 2011; Rango CFP/YFP FRET sensor + importin beta, 45 min; Potency, µM (highest dose often 92.2 µM), inactives show top-dose inhibition of complex formation; actives 0.031% (n = 340,000);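 note: potency is the fitted concentration of half-maximal effect; 0% = DMSO wells and 100% = buffer wells lacking importin beta; nearly all actives have a fitted effect of over 15% in size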
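FRET biosensor Rango (snurportin 1 IBB between N-terminal EYFP and C-terminal Cerulean), 50 nM in PBS/1 mM DTT/0.02% Tween-20/0.1% BSA, preincubated 5 min RT with compound; 0.125 microM importin beta added, 45 min RT, CFP/YFP FRET ratio read.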
Rango dissoc inh: qHTS Assay for Inhibitors of RanGTP induced Rango (Ran-regulated importin-beta cargo) - Importin beta complex dissociation; Biochemical FRET Rango-importin beta, RanGTP-induced dissociation; Potency, µM (doses to about 46.1 µM), inactives show top-dose activity change, negative = inhibition; AID 540253, 2011; actives 0.071% (n = 340,000); Snurportin-1 (Homo sapiens) + GTP-binding nuclear protein Ran (Homo sapiens) + Importin …; note: potency is the fitted concentration of half-maximal effect; % of control where 0% means no effect; nearly all actives have a fitted effect of over 45% in size
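FRET read at 45 min, room temperature: inhibitors block the CFP/YFP signal rise when RanGTP (0.6 uM Ran, 2 mM GTP, 0.2 uM RCC1) frees Rango (0.1 uM) from importin beta (0.25 uM). Pre-read after 5 min compound exposure flags interference.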
ClpP mod: qHTS Assay for Activators of ClpP | purified B. subtilis ClpP, FRET peptide cleavage, 20 min | Potency, µM (highest dose often 57.5 µM), without a hit: top-dose activity change, negative = active | actives 1.9% (n = 340,000) | AID 651965, 2013; active = well fitted falling curve with a large enough effect; inconclusive = small, poorly fitted or top-dose-only effect; inactive = no such curve, though single readings can be large or run the other way; note: potency is the fitted concentration of half-maximal effect; the source files actives as falling curves though it sought activators and does not explain the sign; nearly all actives have a fitted effect of over 65% in size
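Buffer: 100 mM Tris/HCl pH8, 100 mM KCl, 0.05% low protease BSA, 2.5% glycerol, 0.01% Tween-20. ClpP 10 microg/mL final; 20 min RT; delta FRET normalized to ADEP and DMSO controls.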
MBNL1-CUG inh: qHTS Assay for Inhibitors of MBNL1-poly(CUG) RNA binding | Potency, µM (highest dose often 57.5 µM), inactives show at the top dose activity change, negative = inhibition, hits mostly inhibitors | Muscleblind-like protein 1 (Homo sapiens), Q9NR56 | AID 2675, 2010 | TR-FRET MBNL1-His/biotin-(CUG)12 binding, 665/545 ratio | actives 0.036% (n = 280,000); active = well fitted inhibition curve with a large enough effect in the signal ratio, with a control signal flat, not every such curve was filed as active; inconclusive = small, poorly fitted or top-dose-only effect, or effect the other way, or a change in a side signal; inactive = no such curve, though single readings can be large or run the other way; the % refers to the signal ratio; note: potency is the fitted concentration of half-maximal effect; % is set by controls: 0 for no effect and ±100 for the full control effect
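Inhibition of protein-RNA binding appears as loss of TR-FRET between terbium anti-His antibody on MBNL1-His and streptavidin-XL665 on biotin-(CUG)12. Activity is normalized to buffer-only and uninhibited-complex controls.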
CBFb-RUNX1 inh: qHTS Assay for Compounds Blocking the Interaction Between CBF-beta and RUNX1 for the Treatment of Acute Myeloid Leukemia | Runt-related transcription factor 1 (Homo sapiens) + Core-binding factor subunit beta … | AlphaScreen CBFb-His/RUNX1-biotin binding, biochemical | Potency, µM (doses to about 59.8 µM), for inactives: at the highest dose activity, negative = inhibition, usual class: inhibitors | 230,000 tested, under 10 active | AID 1477, 2009; active = well fitted curve in the direction sought with a large enough effect; inconclusive = small, poorly fitted or top-dose-only effect, or effect the other way, or another doubt; inactive = no such curve, though single readings can be large or run the other way; note: % of control where 0% means no effect
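Proteins preincubated together for 20 min at RT before compound addition; 15 min later, nickel and streptavidin beads were added and left 90 min prior to AlphaScreen measurement.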
Active calls of the source: *; u = inconclusive; x = not tested or not shown; [ ] = another dose, or the depositor's remark. Unless noted, calls come from the whole dose curve.

1. Cc1ccc(CNC(=O)CSc2nnc(C)c3c(C)n(-c4ccccc4)nc23)cc1
2. COc1ccc(CCNC(=O)C2COc3ccccc3C2)cc1OC (stereo unspecified)
3. COc1ccc(-c2n[nH]c(=S)o2)c(OC)c1
4. Cc1cc(OCC(=O)N(Cc2ccco2)C2CCS(=O)(=O)C2)cc(C)c1Cl (stereo unspecified)
5. COc1cccc(CN(C(=O)c2ccco2)C2CCS(=O)(=O)C2)c1 (stereo unspecified)

assay / compound | 1 | 2 | 3 | 4 | 5
Rango-impB inh | x | x | 5.5% | u | -0.1%
ClpP mod | 0.5% | -1.3% | 25.1µM* | 28.2µM* | -3.0%
CBFb-RUNX1 inh | x | x | 0.8% | 6.6% | x
Rango dissoc inh | x | x | 14.8% | -20.2% | 25.1%
MBNL1-CUG inh | x | x | -1.7% | 2.2% | -5.7%

6. COc1ccc(CN(C(=O)c2ccco2)C2CCS(=O)(=O)C2)cc1 (stereo unspecified)
7. CCOC(=O)Cn1c(C)c(Br)c(COC)c(C#N)c1=O
8. COCc1c(Br)c(C)[nH]c(=O)c1C#N
9. Cc1ccc(C)c(-n2c(-c3csc(C)c3)n[nH]c2=S)c1
10. Cc1ccc(C)c(-n2c(-c3ccc4c(c3)OCO4)n[nH]c2=S)c1

assay / compound | 6 | 7 | 8 | 9 | 10
Rango-impB inh | -1.6% | 0.8% | 1.8% | 2.0% | -0.8%
ClpP mod | 28.2µM* | x | 14.1µM* | u | 28.2µM*
CBFb-RUNX1 inh | x | 12.9% | -0.9% | -1.4% | -1.3%
Rango dissoc inh | 12.7% | 1.0% | -17.8% | 11.1% | -0.7%
MBNL1-CUG inh | -7.6% | -2.5% | 10.9% | 0.7% | 16.9%

11. COc1ccc(Cl)cc1NC(=O)CSc1nnc(C)n2c1cc1occc12
12. NC(=S)NN=C1c2ccccc2-c2c(F)c(F)c(F)c(F)c21
13. N#Cc1cccc2c1-c1ccccc1/C2=N/NC(N)=S
14. CCCC(=O)Nc1nc2nc(-c3ccccc3)cc(-c3ccccc3)n2n1
15. CCCCC[C@@H](C)N1C[C@H](COCc2ccccc2)Oc2cc(N3CC[C@H](N(C)C)C3)ccc2S1(=O)=O

assay / compound | 11 | 12 | 13 | 14 | 15
Rango-impB inh | x | 73.1µM* | 1.1% | 1.8% | x
ClpP mod | -3.4% | u | 0.5% | 12.6µM* | -12.6%
CBFb-RUNX1 inh | x | x | x | 1.1% | x
Rango dissoc inh | x | 1.5% | -8.0% | 5.7% | x
MBNL1-CUG inh | x | x | u | -10.2% | x

16. Cc1csc2c(=O)sc(NC(=O)c3ccc(F)cc3)nc12
17. Cc1csc2nc(NC(=O)c3ccccc3)sc(=O)c12
18. COCc1ccc(-c2c(-c3ccc(OC)cc3)oc(=O)c3cc(OC)c(OC)cc23)cc1
19. COc1ccc(-c2c(-c3ccsc3)oc(=O)c3cc(OC)c(OC)cc23)cc1
20. CCOC(=O)c1ccccc1NC(=O)c1cc2sccc2n1C

assay / compound | 16 | 17 | 18 | 19 | 20
Rango-impB inh | -1.5% | u | 0.0% | -5.4% | -0.3%
ClpP mod | x | -0.3% | 31.6µM* | u | 28.2µM*
CBFb-RUNX1 inh | 14.0% | 15.1% | x | x | 23.1%
Rango dissoc inh | -7.1% | 5.8µM* | -4.2% | 35.4% | -4.5%
MBNL1-CUG inh | 8.2% | 14.4% | x | x | 24.7%

21. CCOC(=O)c1cccc(NC(=O)c2cc3sccc3n2C)c1
22. Cc1ccc(-n2c(-c3ccccc3)nsc2=NC#N)cc1
23. CCN(CC)c1nc(C#N)cc(-c2ccc(OC)cc2)n1
24. COc1ccc(-c2cc(C#N)nc(Oc3ccc(Cl)cc3)n2)cc1
25. CC(C)c1ccc(NC(=O)CSc2nnc(-c3ccccn3)n2C)cc1

assay / compound | 21 | 22 | 23 | 24 | 25
Rango-impB inh | -6.0% | x | u | 0.2% | -1.8%
ClpP mod | -8.1% | -1.1% | 35.5µM* | 7.94µM* | 28.2µM*
CBFb-RUNX1 inh | 3.4% | x | u | -3.6% | 0.5%
Rango dissoc inh | 12.3% | x | -13.6% | -13.0% | 3.8%
MBNL1-CUG inh | -0.2% | x | 6.1% | -10.6% | -9.3%

26. Cc1ccccc1/C=C1\OC(=O)c2ccccc21
27. Cc1ccc(/C=C2\OC(=O)c3ccccc32)cc1
28. Cc1ccc(C=C2C=C(c3ccccc3)OC2=O)cc1
29. O=C1OC(=O)c2ccccc21
30. FC(F)Oc1ccc(NC(=S)N2CCN(Cc3ccccc3)CC2)cc1

assay / compound | 26 | 27 | 28 | 29 | 30
Rango-impB inh | 2.9% | 0.4% | x | x | 0.2%
ClpP mod | 28.2µM* | 28.2µM* | -3.5% | x | 8.91µM*
CBFb-RUNX1 inh | 16.7% | 16.8% | x | 1.3%[21.7 µM] | 23.9%
Rango dissoc inh | 12.1% | -3.6% | x | x | 1.0%
MBNL1-CUG inh | 2.1% | 13.6% | x | x | -1.0%

31. COC(=O)c1ccc(NCc2cc(O)ccc2O)cc1O
32. COC(=O)c1ccc(NCc2c(O)ccc(O)c2Br)cc1Cl
33. Clc1ccc(-c2nnc3ccccn23)cc1
34. COc1ccc(C2=CC(c3cccc(C)c3)n3nnnc3N2)cc1 (stereo unspecified)
35. Cc1ccc(S(=O)(=O)c2nc(-c3ccccc3Cl)oc2N2CCCCCC2)cc1

assay / compound | 31 | 32 | 33 | 34 | 35
Rango-impB inh | 18.4µM* | -2.9% | 3.4% | x | x
ClpP mod | -1.1% | 1.4% | 28.2µM* | 31.6µM* | 17.8µM*
CBFb-RUNX1 inh | x | x | -3.0% | x | x
Rango dissoc inh | 7.5% | 1.7% | -1.2% | x | x
MBNL1-CUG inh | x | x | 9.7% | x | x

As entered above.
Entry of cpd 31 under ClpP mod: -1.1%
Entry of cpd 33 under Rango dissoc inh: -1.2%
Entry of cpd 32 under Rango dissoc inh: 1.7%

(continued)
36. O=S(=O)(c1ccccc1)c1nc(-c2ccccc2Cl)oc1N1CCCCCC1
37. CCOP(=O)(c1ccccc1)c1nc(-c2ccccc2Cl)oc1N1CCCCC1 (stereo unspecified)
38. CNc1oc(-c2ccccc2F)nc1S(=O)(=O)c1ccc(C)cc1
39. O=C(CSc1nnc(NC(=O)c2ccccc2)s1)NCc1ccco1
40. O=C(CSc1nnc(NC(=O)c2ccc3c(c2)OCO3)s1)NCc1ccco1

assay / compound | 36 | 37 | 38 | 39 | 40
Rango-impB inh | x | 1.0% | 6.5% | -2.4% | 0.9%
ClpP mod | -29.7% | 20µM* | 10µM* | 0.1% | 4.47µM*
CBFb-RUNX1 inh | x | 10.5% | x | x | -3.8%
Rango dissoc inh | x | 3.8% | -13.8% | -4.9% | 0.8%
MBNL1-CUG inh | x | -9.4% | 11.3% | -2.6% | 2.3%

41. Cc1sc(-n2cccc2)c(C(C)NC(=O)Nc2ccccc2Cl)c1C (stereo unspecified)
42. CC1CC(C)CN(C(=S)Nc2ccc(SC(F)F)cc2)C1 (stereo unspecified)
43. CCOc1cc(/C=C2\SC(=NC)N(C)C2=O)cc(Cl)c1OC(C)=O
44. CC(C)N(C(=O)COC(=O)c1cc(Cl)cc(Cl)c1N)C(C)C
45. CC1CCN(C(=O)COC(=O)c2cc(Cl)cc(Cl)c2N)CC1

assay / compound | 41 | 42 | 43 | 44 | 45
Rango-impB inh | x | 1.4% | u | -1.9% | -0.2%
ClpP mod | 2.0% | 28.2µM* | -0.5% | 15.8µM* | 28.2µM*
CBFb-RUNX1 inh | x | 1.3% | x | 9.8% | 13.0%
Rango dissoc inh | x | -10.9% | 4.61µM*[inhibitor] | -4.9% | -6.4%
MBNL1-CUG inh | x | 11.4% | -4.7% | 7.9% | 1.7%

The closing four compounds of the section above lead into the next.
42. CC1CC(C)CN(C(=S)Nc2ccc(SC(F)F)cc2)C1 (stereo unspecified)
43. CCOc1cc(/C=C2\SC(=NC)N(C)C2=O)cc(Cl)c1OC(C)=O
44. CC(C)N(C(=O)COC(=O)c1cc(Cl)cc(Cl)c1N)C(C)C
45. CC1CCN(C(=O)COC(=O)c2cc(Cl)cc(Cl)c2N)CC1
46. CCC(=O)Nc1nnc2n1CCS2
47. Cc1ccc2cc(C#N)c(SCC(=O)NNC(=O)Cc3ccccc3)nc2c1
48. CCOC(=O)CSc1nc2cc(OCC)ccc2cc1C#N
49. CCc1nc(SCC(=O)N2CCc3cc(OC)c(OC)cc3C2)c(C#N)cc1C
50. COc1cc2cc(C#N)c(SCC(=O)N3CCOCC3)nc2cc1OC
51. CCOc1ccc2cc(C#N)c(SCC(=O)OCc3ccccc3)nc2c1

assay / compound | 42 | 43 | 44 | 45 | 46 | 47 | 48 | 49 | 50 | 51
Rango-impB inh | 1.4% | u | -1.9% | -0.2% | x | -3.3% | u | -6.2% | u | x
ClpP mod | 28.2µM* | -0.5% | 15.8µM* | 28.2µM* | 0.1% | 28.2µM* | 15.8µM* | 31.6µM* | -27.0% | 4.1%
CBFb-RUNX1 inh | 1.3% | x | 9.8% | 13.0% | x | -6.3% | 20.9% | x | -6.8% | x
Rango dissoc inh | -10.9% | 4.61µM*[inhibitor] | -4.9% | -6.4% | x | 15.4% | -19.2% | -1.0% | u | x
MBNL1-CUG inh | 11.4% | -4.7% | 7.9% | 1.7% | x | x | 8.6% | x | 7.8% | x
